Results reported in patent US11066414B2, “Cot modulators and methods of use thereof” (Gilead Sciences, Inc., priority 2015, dated 2021).

Chains of the proteins cited; added tags and fusions are not shown. Residues count along the entry.
UniProt P41279, 30-397: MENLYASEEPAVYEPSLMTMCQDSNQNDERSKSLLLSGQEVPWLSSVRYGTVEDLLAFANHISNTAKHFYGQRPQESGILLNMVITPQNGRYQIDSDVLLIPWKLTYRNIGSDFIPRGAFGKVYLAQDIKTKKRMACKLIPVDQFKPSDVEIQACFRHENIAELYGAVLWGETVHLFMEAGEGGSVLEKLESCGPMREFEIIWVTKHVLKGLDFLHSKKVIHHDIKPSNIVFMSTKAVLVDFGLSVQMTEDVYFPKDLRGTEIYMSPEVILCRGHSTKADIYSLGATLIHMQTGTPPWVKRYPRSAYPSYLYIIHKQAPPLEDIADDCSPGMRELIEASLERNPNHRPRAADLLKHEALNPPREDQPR

The compounds below were run against Human Cot (Homo sapiens (Human), UniProt P41279) (assay: High Throughput Cot Biochemical Assay). Settings: IC50 HTRF, Cot HTRF (TR-FRET) biochemical assay.

SMILES	IC50
CC(C)(C)CNc1c(C#N)cnc2c(Cl)cc(N[C@H](c3cn(C4(C(F)(F)F)CC4)nn3)c3ccc(Cl)c4cnccc34)cc12 [Example 651, (S)-8-chloro-6-(((8-chloroisoquinolin-5-yl)(1-(1-(trifluoromethyl)cyclopropyl)-1H-1,2,3-triazol-4-yl)methyl)amino)-4-(neopentylamino)quinoline-3-carbonitrile]	14 nM
CC(C)n1cc([C@@H](Nc2cc(Cl)c3ncc(C#N)c(Nc4ccc(F)c(Cl)c4)c3c2)c2cncs2)nn1 [Example 303, (R)-8-chloro-4-((3-chloro-4-fluorophenyl)amino)-6-(((1-isopropyl-1H-1,2,3-triazol-4-yl)(thiazol-5-yl)methyl)amino)quinoline-3-carbonitrile]	14 nM
COc1ncccc1[C@H](Nc1cc(Cl)c2ncc(C#N)c(NCC(C)(C)C)c2c1)c1cn(C2(C(F)(F)F)CC2)nn1 [Example 782, (S)-8-chloro-6-(((2-methoxypyridin-3-yl)(1-(1-(trifluoromethyl)cyclopropyl)-1H-1,2,3-triazol-4-yl)methyl)amino)-4-(neopentylamino)quinoline-3-carbonitrile]	23 nM
Cc1ncccc1[C@H](Nc1cc(Cl)c2ncc(C#N)c(Nc3ccc(Cl)c(Cl)c3F)c2c1)c1cn(C(C)C)nn1 [Example 232, (S)-8-chloro-4-((3,4-dichloro-2-fluorophenyl)amino)-6-(((1-isopropyl-1H-1,2,3-triazol-4-yl)(2-methylpyridin-3-yl)methyl)amino)quinoline-3-carbonitrile]	15 nM
CC(C)n1cc([C@@H](Nc2cc(Cl)c3ncc(C#N)c(Nc4ccc(F)c(Cl)c4)c3c2)c2cocn2)nn1 [Example 312, (S)-8-chloro-4-((3-chloro-4-fluorophenyl)amino)-6-(((1-isopropyl-1H-1,2,3-triazol-4-yl)(oxazol-4-yl)methyl)amino)quinoline-3-carbonitrile]	13 nM
CC(C)(C)N1CCC(n2cc([C@@H](Nc3cc(Cl)c4ncc(C#N)c(Nc5cncc(Cl)c5)c4c3)c3cccnc3)nn2)CC1 [Example 284, (S)-6-(((1-(1-(tert-butyl)piperidin-4-yl)-1H-1,2,3-triazol-4-yl)(pyridin-3-yl)methyl)amino)-8-chloro-4-((5-chloropyridin-3-yl)amino)quinoline-3-carbonitrile]	14 nM
CCN1CCC(n2cc([C@@H](Nc3cc(Cl)c4ncc(C#N)c(Nc5ccc(F)c(Cl)c5)c4c3)c3cccs3)nn2)CC1 [Example 380, (R)-8-chloro-4-((3-chloro-4-fluoro-phenyl)amino)-6-(((1-(1-ethylpiperidin-4-yl)-1H-1,2,3-triazol-4-yl)(thiophen-2-yl)methyl)amino)quinoline-3-carbonitrile]	14 nM

Second part, the compound after the results:

IC50	SMILES
13 nM	N#Cc1csc([C@H](Nc2cc(Cl)c3ncc(C#N)c(Nc4ccc(F)c(Cl)c4)c3c2)c2cn(C3COC3)nn2)c1 [Example 339, (R)-8-chloro-4-((3-chloro-4-fluorophenyl)amino)-6-(((4-cyanothiophen-2-yl)(1-(oxetan-3-yl)-1H-1,2,3-triazol-4-yl)methyl)amino)-quinoline-3-carbonitrile]
13 nM	CC(C)(C)CNc1c(C#N)cnc2c(Cl)cc(N[C@H](c3cn(C4(C(F)(F)F)CC4)nn3)c3cccn4cncc34)cc12 [Example 599, (S)-8-chloro-6-((imidazo[1,5-a]pyridin-8-yl(1-(1-(trifluoromethyl)cyclopropyl)-1H-1,2,3-triazol-4-yl)methyl)amino)-4-(neopentylamino)quinoline-3-carbonitrile]
13 nM	CCN1CCC(n2cc(C(Nc3cc(Cl)c4ncc(C#N)c(Nc5ccc(F)c(Cl)c5)c4c3)c3ncccn3)nn2)CC1 (stereo not drawn) [Example 367, 8-chloro-4-((3-chloro-4-fluorophenyl)amino)-6-(((1-(1-ethylpiperidin-4-yl)-1H-1,2,3-triazol-4-yl)(pyrimidin-2-yl)methyl)-amino)quinoline-3-carbonitrile]
13 nM	Cc1nc(F)ccc1[C@H](Nc1cc(Cl)c2ncc(C#N)c(NCC(C)(C)CO)c2c1)c1cn(C2(C(F)F)CC2)nn1 [Example 746, (S)-8-chloro-6-(((1-(1-(difluoromethyl)cyclopropyl)-1H-1,2,3-triazol-4-yl)(6-fluoro-2-methylpyridin-3-yl)methyl)amino)-4-((3-hydroxy-2,2-dimethylpropyl)amino)quinoline-3-carbonitrile]
13 nM	Cc1nc(F)ccc1[C@H](Nc1cc(C#N)c2ncc(C#N)c(N[C@@H](c3ccccc3)C3CC3)c2c1)c1cn(C2(C(F)(F)F)CC2)nn1 [Example 613, 4-(((R)-cyclopropyl(phenyl)methyl)amino)-6-(((S)-(6-fluoro-2-methylpyridin-3-yl)(1-(1-(trifluoromethyl)cyclopropyl)-1H-1,2,3-triazol-4-yl)methyl)amino)quinoline-3,8-dicarbonitrile]
13 nM	Cn1ncc2c([C@H](Nc3cc(Cl)c4ncc(C#N)c(NCC(C)(C)C)c4c3)c3cn(C4(C(F)(F)F)CC4)nn3)cccc21 [Example 543, (S)-8-chloro-6-(((1-methyl-1H-indazol-4-yl)(1-(1-(trifluoromethyl)cyclopropyl)-1H-1,2,3-triazol-4-yl)methyl)amino)-4-(neopentylamino)quinoline-3-carbonitrile]
12 nM	Cc1ncsc1[C@H](Nc1cc(Cl)c2ncc(C#N)c(Nc3ccc(Cl)c(Cl)c3F)c2c1)c1cn(C2COC2)nn1 [Example 217, (R)-8-chloro-4-((3,4-dichloro-2-fluorophenyl)amino)-6-(((4-methylthiazol-5-yl)(1-(oxetan-3-yl)-1H-1,2,3-triazol-4-yl)methyl)amino)quinoline-3-carbonitrile]
12 nM	CC(C)(C)CNc1c(C#N)cnc2c(Cl)cc(N[C@@H](c3ccc4cccnc4c3)c3cn(C4(C(F)F)CC4)nn3)cc12 [Example 699, (S)-8-chloro-6-(((1-(1-(difluoromethyl)cyclopropyl)-1H-1,2,3-triazol-4-yl)(quinolin-7-yl)methyl)amino)-4-(neopentylamino)quinoline-3-carbonitrile]

Same assay, conditions: read-out: IC50 HTRF; Cot HTRF (TR-FRET KinEASE) biochemical assay, 400 μM ATP

IC50	SMILES
13 nM	Cc1nc(F)ccc1[C@H](Nc1cc(Cl)c2ncc(C#N)c(NCC(C)(C)C)c2c1)c1nnn2c1OCCC2 [Example 985, (S)-8-chloro-6-(((6,7-dihydro-5H-[1,2,3]triazolo[5,l-b][1,3]oxazin-3-yl)(6-fluoro-2-methylpyridin-3-yl)methyl)amino)-4-(neopentylamino)quinoline-3-carbonitrile]

Same assay, conditions: read-out: IC50 HTRF; Cot HTRF (TR-FRET) biochemical assay

IC50	SMILES
12 nM	Cc1cncc([C@H](Nc2cc(Cl)c3ncc(C#N)c(Nc4ccc(F)c(Cl)c4)c3c2)c2c[nH]nn2)c1 [Example 249, (S)-8-chloro-4--((3-chloro-4-fluorophenyl)amino)-6-(((5-methylpyridin-3-yl)(1H-1,2,3-triazol-4-yl)methyl)amino)quinoline-3-carbonitrile]
13 nM	Cn1nccc1[C@H](Nc1cc(Cl)c2ncc(C#N)c(NCC(C)(C)C)c2c1)c1cn(C2(C(F)(F)F)CC2)nn1 [Example 666, (S)-8-chloro-6-(((1-methyl-1H-pyrazol-S-yl)(1-(1-(trifluoromethyl)cyclopropyl)-1H-1,2,3-triazol-4-yl)methyl)amino)-4-(neopentylamino)quinoline-3-carbonitrile]
